Experimental data from PubChem BioAssay AID1117264 (The Scripps Research Institute Molecular Screening Center, 2014).
Only a part is listed here, and it is no random draw. Some results for these compounds are left out of this collection, so the calls shown say nothing about other tests. Calls of active or inactive are those of the source.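 The calls were made as follows: active = inhibition above the mean inhibition across all screened compounds plus 3 SD (cut at about 11% in these data); inactive = the rest.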

Protein sequences, listed by entry. Tags and fused reporters are not part of them.
UniProt P86926, whole entry: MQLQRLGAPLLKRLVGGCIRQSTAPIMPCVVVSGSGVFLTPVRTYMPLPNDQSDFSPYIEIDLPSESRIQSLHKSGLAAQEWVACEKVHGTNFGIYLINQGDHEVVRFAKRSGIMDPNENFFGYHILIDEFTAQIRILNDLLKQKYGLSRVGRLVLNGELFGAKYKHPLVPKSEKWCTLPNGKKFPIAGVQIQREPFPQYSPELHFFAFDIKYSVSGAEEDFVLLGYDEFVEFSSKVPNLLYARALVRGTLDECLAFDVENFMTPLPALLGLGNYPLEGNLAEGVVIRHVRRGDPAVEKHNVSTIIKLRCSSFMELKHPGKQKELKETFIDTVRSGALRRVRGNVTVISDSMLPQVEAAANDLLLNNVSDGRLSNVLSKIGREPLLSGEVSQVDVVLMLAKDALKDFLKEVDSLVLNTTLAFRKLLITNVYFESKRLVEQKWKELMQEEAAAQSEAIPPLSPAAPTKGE

molecular target: RNA-editing ligase 1, mitochondrial (Trypanosoma brucei brucei) (UniProt P86926); experiment: TbREL1 RNA ligase inhibitors, primary screen, biochemical, FRET fluorescence (AID 1117264); conditions: TbREL1 RNA ligation, at 9.66 µM, active compounds read high;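 also: 0% = plate median of test wells and 100% = NSC42067 control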

SMILES	inhibition
Cc1ccc(C(=O)NCC2(N3CCCCC3)CCCCC2)cc1	inactive: 0.7%
O=C(NCC1(N2CCCCC2)CCCCC1)c1cccc(Br)c1	inactive: -0.15%
C=CCN1CCN(CCOC(=O)C(O)(c2ccccc2)c2ccccc2)CC1	inactive: -0.74%
CN(C)c1cccc(C(=O)NCC2(N(C)C)CCCCC2)c1	inactive: -3.97%
O=C(OCCN1CCCC1)C(O)(c1ccccc1)c1ccccc1	inactive: -0.84%
O=C(OC1CN2CCC1CC2)C(CO)(c1ccccc1)c1ccccc1 (stereo unspecified)	inactive: -0.16%
